From ChEMBL document CHEMBL1124780, “Phenyl selenones: alkyl transfer by selenium-carbon bond cleavage” (J Med Chem, 1990) come the findings set out here.

The test system of the assay is CCRF-CEM. Put plainly: In vitro growth inhibition against CCRF-CEM human lymphoblast cells. It counts as functional, cell-based. In a few lines: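 Cells were exposed to drug in vitro for 48 h (L1210 murine leukemia; CCRF-CEM human lymphoblast). The value is the drug concentration giving 50% growth inhibition.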

Compound `ClCC[Se]c1ccccc1` returned an IC50 of 8 µM. That is a single-digit micromolar value.

One may read the IC50 as the point on the concentration scale where inhibition reaches its midpoint. Low values mean higher potency, high ones lower potency.
